Results as given in ChEMBL document CHEMBL2375326, “Novel IKKβ inhibitors discovery based on the co-crystal structure by using binding-conformation-based and ligand-based method” (Eur J Med Chem, 2013).

By UniProt entry, the sequences of proteins in these tests, tags left out. Where a name states a change or a piece, a line headed by the entry shows the natural chain unless it says otherwise.
UniProt O14920: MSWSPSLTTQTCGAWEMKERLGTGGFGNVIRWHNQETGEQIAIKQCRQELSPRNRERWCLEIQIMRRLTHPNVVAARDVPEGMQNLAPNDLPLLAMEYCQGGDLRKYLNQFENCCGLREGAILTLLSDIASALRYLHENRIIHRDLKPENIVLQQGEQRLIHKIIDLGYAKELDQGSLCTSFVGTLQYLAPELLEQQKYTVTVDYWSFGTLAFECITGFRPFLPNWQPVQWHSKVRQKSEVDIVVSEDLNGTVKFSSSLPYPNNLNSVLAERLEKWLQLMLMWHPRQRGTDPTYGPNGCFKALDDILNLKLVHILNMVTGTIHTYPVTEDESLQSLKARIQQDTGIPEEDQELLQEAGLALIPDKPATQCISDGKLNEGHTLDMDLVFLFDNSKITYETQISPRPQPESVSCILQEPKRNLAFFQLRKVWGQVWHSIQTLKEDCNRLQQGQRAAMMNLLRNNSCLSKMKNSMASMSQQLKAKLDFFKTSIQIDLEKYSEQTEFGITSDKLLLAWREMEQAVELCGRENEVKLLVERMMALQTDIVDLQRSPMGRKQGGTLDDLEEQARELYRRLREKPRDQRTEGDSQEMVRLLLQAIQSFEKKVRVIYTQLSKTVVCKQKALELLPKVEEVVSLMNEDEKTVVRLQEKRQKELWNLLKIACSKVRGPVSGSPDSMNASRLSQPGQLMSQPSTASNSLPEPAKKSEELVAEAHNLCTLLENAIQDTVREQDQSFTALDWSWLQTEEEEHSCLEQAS

Target: Inhibitor of nuclear factor kappa-B kinase subunit beta (Homo sapiens, UniProt O14920)

| SMILES | IC50 [nM] |
| --- | --- |
| CNc1nc2[nH]c(-c3cccc(CNC(=O)CO)c3)cc2c2c1ncn2C | 25.1 |
| CNc1nc2[nH]c(-c3cccc(CN)c3)cc2c2c1ncn2C | 11 |
